The source of these data is US20240269228A1 (priority 2021, published 2024).

Sequences of proteins named here, by UniProt entry; tags and fusion partners are left off. Residues count along the entry.
UniProt Q9GZZ6, 25-450 limits assumed: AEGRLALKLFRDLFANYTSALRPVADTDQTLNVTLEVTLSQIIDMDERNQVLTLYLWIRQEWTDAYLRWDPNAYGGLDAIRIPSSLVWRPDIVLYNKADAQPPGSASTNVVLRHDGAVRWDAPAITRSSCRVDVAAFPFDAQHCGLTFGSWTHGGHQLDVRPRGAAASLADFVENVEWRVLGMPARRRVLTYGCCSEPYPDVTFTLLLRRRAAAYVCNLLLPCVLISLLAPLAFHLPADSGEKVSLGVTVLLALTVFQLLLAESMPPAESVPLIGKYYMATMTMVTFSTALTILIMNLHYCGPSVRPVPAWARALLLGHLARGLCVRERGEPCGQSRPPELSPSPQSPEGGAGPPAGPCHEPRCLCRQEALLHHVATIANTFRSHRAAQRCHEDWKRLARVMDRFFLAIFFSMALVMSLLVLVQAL
UniProt Q9UGM1, 26-479 limits assumed: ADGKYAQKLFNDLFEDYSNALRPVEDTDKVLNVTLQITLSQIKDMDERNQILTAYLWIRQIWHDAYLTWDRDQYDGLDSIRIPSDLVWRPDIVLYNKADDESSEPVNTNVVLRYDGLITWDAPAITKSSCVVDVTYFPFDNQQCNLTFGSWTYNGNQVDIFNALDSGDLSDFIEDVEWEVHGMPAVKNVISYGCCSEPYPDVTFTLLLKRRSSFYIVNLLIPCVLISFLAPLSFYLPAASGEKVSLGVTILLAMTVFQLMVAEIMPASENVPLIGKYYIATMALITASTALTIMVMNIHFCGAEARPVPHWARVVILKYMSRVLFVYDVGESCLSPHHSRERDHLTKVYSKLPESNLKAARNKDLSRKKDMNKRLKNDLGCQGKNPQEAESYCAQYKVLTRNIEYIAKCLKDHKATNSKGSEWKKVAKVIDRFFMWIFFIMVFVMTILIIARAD

The experiment concerns the target human α9α10 nAChR (Homo sapiens, UniProt Q9GZZ6+Q9UGM1).

As to G C C S D P R C R Y R C R [RgIA], the “recovery after 5 min peptide washout” value is above 99%.
